Laboratory results taken from patent publication US20100267775A1, “OXADIAZOLIDINEDIONE COMPOUND” (priority 2007, published 2010).

The chains behind the UniProt entries cited, without tags or fusion partners.
UniProt O14842, whole entry R211H: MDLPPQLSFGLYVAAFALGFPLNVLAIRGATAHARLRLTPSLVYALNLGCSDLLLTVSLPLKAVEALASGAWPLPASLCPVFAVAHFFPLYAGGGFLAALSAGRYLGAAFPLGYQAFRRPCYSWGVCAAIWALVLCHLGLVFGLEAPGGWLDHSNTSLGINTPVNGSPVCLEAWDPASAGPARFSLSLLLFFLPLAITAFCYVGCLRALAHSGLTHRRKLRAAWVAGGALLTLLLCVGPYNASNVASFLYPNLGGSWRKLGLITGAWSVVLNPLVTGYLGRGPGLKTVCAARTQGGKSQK

How the values were obtained:
human GPR40 = human GPR40 (Homo sapiens, UniProt O14842, R211H); test: Measurement of GPR40 agonistic activity (intracellular calcium, FLIPR, CHO cell line expressing human GPR40); conditions: change in fluorescence intensity one minute after measurement, tested form: Na salt
Description: Test Method 1: Measurement of GPR40 Agonistic Activity i) Cloning of Human GPR40
In accordance with procedures as described below, the full-length sequence of GPR40 was obtained by a polymerase chain reaction (PCR) to set human genomic DNA (Clontech) as a template.
Oligonucleotide which consists of a base sequence represented by SEQ ID NO. 1 was used as a forward primer, and oligonucleotide which consists of a base sequence represented by SEQ ID NO. 2 was used as a reverse primer. To each 5′ terminus of the forward primer and the reverse primer described above, a base sequence including the XbaI recognition site is attached. In the PCR, using Taq DNA polymerase (Ex Taq DNA polymerase; TAKARA BIO INC.), a cycle consisting of 94° C. (15 sec)/55° C. […]
The GPR40 agonistic activity was measured with fluctuation of the intracellular calcium concentration as an index by FLIPR (registered trademark, Molecular Devices Corporation). […]
A CHO cell line expressing human GPR40 was seeded with 6×10^3 per well to a 384-well black plate (Becton, Dickinson and Company), and cultivated in a CO2 incubator overnight. […] A reaction was initiated by 10 μl of dispensation, the fluctuation of the intracellular calcium concentration was measured by FLIPR. An EC50 value of the compound to be inspected was calculated from the dose-response curve of change in fluorescence intensity one minute after measurement.

normal mice = test: Single oral glucose tolerance test on normal mice; assay type: in vivo; conditions: tested form: Na salt
Protocol: Test Method 3: Single Oral Glucose Tolerance Test on Normal Mice
The anti-hyperglycemic action after glycemic load of the compound to be inspected was examined using normal mice. Hereinafter, the test method will be described.
Male ICR mice which was preparedly reared for one week (6-week-old) was fasted overnight, and used as an animal to be inspected. A compound to be inspected was 0.5% methylcellulose suspension, and the suspension was orally administered 30 minutes before the glucose (2 g/kg) load. With regard to some compounds to be inspected, prior blood drawing was performed (0 min value), and blood glucose levels were measured at 5, 15, 30, 60 and 120 minutes later glucose load when the compound to be inspected was orally administered. A control group was given 0.5% methylcellulose. The evaluation was carried out in the following manner. (Evaluation 1) The reduction rate of blood glucose levels after glucose loading (%) with respect to the control group was calculated at a point of glucose load which is 30 minutes after the oral administration of 10 mg/kg of the compound to be inspected. […]
(Evaluation 2) The reduction rate of blood glucose levels after glucose loading (%) with respect to the control group was calculated at a point of glucose load which is 30 minutes after the oral administration of 10, 3, 1, 0.3 or 0.1 mg/kg of the compound to be inspected. […]

Question: What does the source list for Cc1cc(OCCO)cc(C)c1-c1cccc(COc2ccc(Cn3oc(=O)[nH]c3=O)cn2)c1?
Answer: EC50 (human GPR40): 94 nM; Reduction rate of blood glucose level (%) (normal mice; Evaluation 1: male ICR mice, 10 mg/kg oral 30 minutes before glucose (2 g/kg) load, with respect to control group): 43%; MED (normal mice; Evaluation 2: minimum oral dose (10, 3, 1, 0.3 or 0.1 mg/kg) with reduction rate 20% or more or significant decrease vs control, 'Below' = lower doses not tested): 3 mg/kg
